Measured values taken from patent publication US20090175786A1 (published 2009).

Amino acid sequences for entries named in this document (tags omitted). A change or cut given only in a name is not applied to a line headed by its entry.
UniProt P30550: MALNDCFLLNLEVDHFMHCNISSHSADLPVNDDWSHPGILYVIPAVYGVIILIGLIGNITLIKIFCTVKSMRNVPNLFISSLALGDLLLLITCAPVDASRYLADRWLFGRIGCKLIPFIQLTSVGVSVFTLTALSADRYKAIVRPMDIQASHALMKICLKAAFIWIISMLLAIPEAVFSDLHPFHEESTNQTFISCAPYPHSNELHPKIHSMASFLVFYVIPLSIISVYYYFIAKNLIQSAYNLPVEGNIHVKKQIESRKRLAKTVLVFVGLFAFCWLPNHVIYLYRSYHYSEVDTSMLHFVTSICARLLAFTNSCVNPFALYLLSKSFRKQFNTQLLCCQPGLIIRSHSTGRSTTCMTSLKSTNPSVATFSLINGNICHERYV

T1: neuromedin-B preferring receptor (NMB-R) of C6 rodent glioblastoma cells (rodent, UniProt P24053 1-390, limits assumed)
T1 construct: whole, on cells; also called C6/NMB-R
T1 sequence (looked up): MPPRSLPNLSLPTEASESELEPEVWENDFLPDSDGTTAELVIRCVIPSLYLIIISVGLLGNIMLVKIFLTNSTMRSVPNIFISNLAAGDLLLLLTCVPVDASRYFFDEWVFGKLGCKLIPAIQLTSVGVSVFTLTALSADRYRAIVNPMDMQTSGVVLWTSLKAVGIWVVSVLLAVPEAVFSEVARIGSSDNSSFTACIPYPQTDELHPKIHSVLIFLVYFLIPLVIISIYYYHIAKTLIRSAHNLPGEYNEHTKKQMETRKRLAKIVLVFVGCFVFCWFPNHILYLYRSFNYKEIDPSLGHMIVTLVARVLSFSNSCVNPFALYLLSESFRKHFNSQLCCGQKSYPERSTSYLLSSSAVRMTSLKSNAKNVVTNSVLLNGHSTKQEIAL

B1: >EQ-[K(DO3A-monoamide-G-Abz4)-LGNQWAVGHLM-NH2 (peptide)
peptide: EQKLGNQWAVGHLM
modifications: residue 1 is pyroglutamate; Lys 3 side chain: DO3A-monoamide-Gly-4-aminobenzoic acid; C-terminal amide
notes: also called L218
B2: DO3A-monoamide-G-Abz4-yQWAV-Ala2-HF-Nle-NH2 (peptide)
peptide: YQWAVAHFL
modifications: N-terminus: DO3A-monoamide-Gly-4-aminobenzoic acid; residue 1 is D-Tyr; Ala2 = beta-alanine; Nle = norleucine; C-terminal amide
notes: also called L222; Universal agonist
B3: DO3A-monoamide-G-Abz4-fQWAV-Ala2-HF-Nle-NH2 (peptide)
peptide: FQWAVAHFL
modifications: N-terminus: DO3A-monoamide-Gly-4-aminobenzoic acid; residue 1 printed f (D-Phe) in Table 13, Phe / L-phenylalanyl in Table 3 and paragraph 422; Ala2 = beta-alanine; Nle = norleucine; C-terminal amide
notes: also called L223; Universal agonist
B4: DO3A-monoamide-G-Abz4-fQWAVGHLL-NH2 (peptide)
peptide: FQWAVGHLL
modifications: N-terminus: DO3A-monoamide-Gly-4-aminobenzoic acid; residue 1 is D-Phe; C-terminal amide
notes: also called L221
B5: DO3A-monoamide-G-Abz4-fQWAVGHLM-NH2 (peptide)
peptide: FQWAVGHLM
modifications: N-terminus: DO3A-monoamide-Gly-4-aminobenzoic acid; residue 1 is D-Phe; C-terminal amide
notes: also called L214; DO3A-monoamide-G-4-aminobenzoic acid-(D)-Phe-BBN(7-14)
B6: N,N-dimethylglycine-Ser-Cys(Acm)-Gly-G-QWAVGHLM-NH2 (peptide)
peptide: GSCGGQWAVGHLM
modifications: residue 1 is N,N-dimethylglycine; Cys 3 S-acetamidomethyl (Acm); C-terminal amide
B7: N,N-dimethylglycine-Ser-Cys(Acm)-Gly-KK-QWAVGHLM-NH2 (peptide)
peptide: GSCGKKQWAVGHLM
modifications: residue 1 is N,N-dimethylglycine; Cys 3 S-acetamidomethyl (Acm); C-terminal amide
B8: N,N-dimethylglycine-Ser-Cys(Acm)-Gly-KS-QWAVGHLM-NH2 (peptide)
peptide: GSCGKSQWAVGHLM
modifications: residue 1 is N,N-dimethylglycine; Cys 3 S-acetamidomethyl (Acm); C-terminal amide
B9: N,N-dimethylglycine-Ser-Cys(Acm)-Gly-N-4-aminoethyl-N-1-piperazineacetic acid-Ser-BBN(7-14) (peptide)
peptide: SQWAVGHLM
modifications: N-terminus: N,N-dimethylglycine-Ser-Cys(Acm)-Gly-N-4-aminoethyl-N-1-piperazineacetic acid; C-terminal amide
notes: also called L28
B10: DO3A-monoamide-Gly-3′-Aminobiphenyl-3-carboxylic acid-BBN(7-14) (peptide)
peptide: QWAVGHLM
modifications: N-terminus: DO3A-monoamide-Gly-3′-Aminobiphenyl-3-carboxylic acid; C-terminal amide
notes: also called L207
B11: DO3A-monoamide-Aoc-QWAVGHLM-NH2 (DO3A-monoamide-8-amino-octanoic acid-BBN (7-14)) (peptide)
peptide: QWAVGHLM
modifications: N-terminus: DO3A-monoamide-8-aminooctanoic acid; C-terminal amide
notes: control; also called DO3A monoamide-aminooctanyl-BBN [7-14]; control
B12: DO3A-monoamide-Nal1-Bip-QWAVGHLM-NH2 (peptide)
peptide: QWAVGHLM
modifications: N-terminus: DO3A-monoamide-Nal1-Bip (L-1-Naphthylalanine, L-Biphenylalanine); C-terminal amide
B13: DO3A-monoamide-N-4-aminoethyl-N-1-piperazineacetic acid-BBN(7-14) (peptide)
peptide: QWAVGHLM
modifications: N-terminus: DO3A-monoamide-N-4-aminoethyl-N-1-piperazine-acetic acid; C-terminal amide
notes: also called L89
B14: DO3A-monoamide-Gly-4′-Amino-2′-methyl biphenyl-4-carboxylic acid-BBN(7-14) (peptide)
peptide: QWAVGHLM
modifications: N-terminus: DO3A-monoamide-Gly-4′-Amino-2′-methyl biphenyl-4-carboxylic acid; C-terminal amide
notes: also called L206

target: T2, gastrin releasing peptide receptor (GRP-R), human (human, UniProt P30550 1-384); test: 125I-BBN competition, PC3 cells
T2 construct: whole, on cells; also called GRP receptor; GRP-preferring receptor

Row | IC50 [nM] | Binder
1 | 2.5 | QWAVGHFL (N-terminus: DO3A-monoamide-Gly-4-aminobenzoic acid; C-terminal amide, also called L300) [DO3A-monoamide-G-Abz4-QWAVGHFL-NH2]
2 | 53 | B1
3 | 240 | LWAVGSFM (N-terminus: DO3A-monoamide-Gly-4-aminobenzoic acid; C-terminal amide, also called L225) [DO3A-monoamide-G-Abz4-LWAVGSFM-NH2]
4 | 46 | B2
5 | 52 | B3
6 | 39 | LWATGHFM (N-terminus: DO3A-monoamide-Gly-4-aminobenzoic acid; C-terminal amide, also called L227) [DO3A-monoamide-G-Abz4-LWATGHFM-NH2]
7 | 340 | B4
8 | 18 | B5

target: T2, gastrin releasing peptide receptor …; test: 125I-BBN competition, PC3 cells; remark: another data set of the same source

Row | IC50 [nM] | Binder
9 | 25 | B6
10 | 13 | B7
11 | 7.5 | B8
12 | 28 | LWATGHFM (N-terminus: DO3A-monoamide-Gly-4-aminobenzoic acid; C-terminal amide, also called L227) [DO3A-monoamide-G-Abz4-LWATGHFM-NH2]
13 | 25 | B9

target: T2, gastrin releasing peptide receptor …; test: 125I-BBN competition, PC3 cells; remark: another data set of the same source

Row | IC50 [nM] | Binder
14 | 885 | YGNLWATGHFM (residue 1 is D-Tyr (y); C-terminal amide, also called neuromedin analog) [yGNLWATGHFM-NH2]
15 | 240 | LWAVGSFM (N-terminus: DO3A-monoamide-Gly-4-aminobenzoic acid; C-terminal amide, also called L225) [DO3A-monoamide-G-Abz4-LWAVGSFM-NH2]
16 | 28 | LWATGHFM (N-terminus: DO3A-monoamide-Gly-4-aminobenzoic acid; C-terminal amide, also called L227) [DO3A-monoamide-G-Abz4-LWATGHFM-NH2]

target: T2, gastrin releasing peptide receptor …; test: 125I-BBN competition, PC3 cells; remark: another data set of the same source

Row | IC50 [nM] | Binder
17 | 2.5 | QWAVGHFL (N-terminus: DO3A-monoamide-Gly-4-aminobenzoic acid; C-terminal amide, also called L300) [DO3A-monoamide-G-Abz4-QWAVGHFL-NH2]
18 | 340 | B4

target: T1, neuromedin-B preferring receptor …; test: 125I-NMB competition, C6 cells

Row | IC50 [nM] | Binder
19 | 15.1 | B10
20 | 3.1 | B11
21 | 2.2 | QWAVGHLM (N-terminus: DO3A-monoamide-Gly-3-methyl-4-aminobenzoic acid; C-terminal amide, also called L242) [DO3A-monoamide-Gly-3-methyl-4-aminobenzoic acid-BBN(7-14)]
22 | 1.2 | GQWAVGHLM (N-terminus: DO3A-monoamide-4-aminobenzoic acid; C-terminal amide, also called L204) [DO3A-monoamide-4-aminobenzoic acid-Gly-BBN(7-14)]
23 | 211 | B12
24 | 2.7 | QWAVGHLM (N-terminus: DO3A-monoamide-Gly-4-hydrazinobenzoyl; C-terminal amide, also called L202) [DO3A-monoamide-Gly-4-hydrazinobenzoyl-BBN(7-14)]
25 | 114 | B13
26 | 1.3 | B14
27 | 13 | B9

target: T2, gastrin releasing peptide receptor …; test: 125I-BBN competition, PC3 cells; remark: another data set of the same source

Row | IC50 [nM] | Binder
28 | 46 | B2
29 | 52 | B3

target: T2, gastrin releasing peptide receptor …; test: 125I-BBN competition, PC3 cells; remark: another data set of the same source

Row | IC50 [nM] | Binder
30 | 18 | B5

target: T2, gastrin releasing peptide receptor …; test: 125I-BBN competition, PC3 cells; remark: another data set of the same source

Row | IC50 [nM] | Binder
31 | 25 | B9

target: T1, neuromedin-B preferring receptor …; test: 125I-NMB competition, C6 cells; remark: another data set of the same source

Row | IC50 [nM] | Binder
32 | 1.19 | GQWAVGHLM (N-terminus: DO3A-monoamide-4-aminobenzoic acid; C-terminal amide, also called L204) [DO3A-monoamide-4-aminobenzoic acid-Gly-BBN(7-14)]
33 | 0.16 | YGNLWATGHFM (residue 1 is D-Tyr (y); C-terminal amide, also called neuromedin analog) [yGNLWATGHFM-NH2]
